# Experimental data reported in PubChem BioAssay AID560 (The Scripps Research Institute Molecular Screening Center, 2006).
# By UniProt entry, the sequences of proteins in these tests, tags left out.
# UniProt P35398, whole entry: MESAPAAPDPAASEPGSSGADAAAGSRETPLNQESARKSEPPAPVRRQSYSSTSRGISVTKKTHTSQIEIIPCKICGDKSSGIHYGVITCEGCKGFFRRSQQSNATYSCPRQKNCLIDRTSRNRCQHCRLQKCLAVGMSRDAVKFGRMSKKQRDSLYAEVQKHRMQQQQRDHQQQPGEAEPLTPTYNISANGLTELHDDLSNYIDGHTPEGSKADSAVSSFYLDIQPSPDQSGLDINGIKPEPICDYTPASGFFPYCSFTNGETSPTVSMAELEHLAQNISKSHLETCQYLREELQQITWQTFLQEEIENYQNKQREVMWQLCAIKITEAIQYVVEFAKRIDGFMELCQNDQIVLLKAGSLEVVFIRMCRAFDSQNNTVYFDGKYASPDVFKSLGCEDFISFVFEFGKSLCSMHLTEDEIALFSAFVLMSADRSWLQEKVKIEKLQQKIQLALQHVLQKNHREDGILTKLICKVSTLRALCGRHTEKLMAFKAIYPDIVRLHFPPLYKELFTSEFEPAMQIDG
# The list shows a part of the results, in another mix than the full data. Active and inactive are the calls of the source.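 Rule for the calls: active = activation above the mean of all tested compounds plus 3 SD (cut at about 49% in these data); inactive = the rest.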
# Biological target: Nuclear receptor ROR-alpha (Homo sapiens) (UniProt P35398)
# Test: activators of orphan receptor RORA, primary screen, cell-based, luminescence (AID 560);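 note: 0% = DMSO-treated RORA cells and 100% = added signal equal to DMSO minus mock-transfected cells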
# Settings: CHO-K1 Gal4-RORA LBD luciferase reporter, at 10 µM, hits give high values, percent increase over mock-subtracted basal signal
row,SMILES,activation
1,N#CC1(Nc2ccccc2)CCN(CCc2ccccc2)CC1,inactive: 3.2%
2,O=C(OC1CN2CCC1CC2)C1c2ccccc2Oc2ccccc21 (configuration not stated),inactive: 0.5%
3,COc1ccc(NC2CCN(CCc3ccccc3)CC2)c(OC)c1,inactive: -18.8%
4,Fc1ccccc1NC1CCN(Cc2ccccc2)CC1,inactive: -14.4%
5,CCOc1ncccc1C(=O)NCC1(N2CCOCC2)CCCCC1,inactive: -12.7%
6,CCC(CO)(C(=O)OC1CN2CCC1CC2)c1ccccc1 (configuration not stated),inactive: -5.1%
7,N/C(=N\O)c1c(N)no[n+]1[O-],inactive: 10.2%
